Laboratory results taken from patent publication US20260248920A1, “COMPOSITION FOR PREVENTING OR TREATING INFLAMMATORY DISEASES, CONTAINING POLY(ORGANOPHOSPHAZENE) POLYMER” (KOREA INSTITUTE OF SCIENCE AND TECHNOLOGY, priority 2022, published 2026).

Test system: NIH3T3 fibroblast cell line
Settings: 625 μg/ml

In the case of `Cc1ccc(-c2cc(C(F)(F)F)nn2-c2ccc(S(N)(=O)=O)cc2)cc1` [CXB, Celecoxib], the cytotoxicity is reported as “high cytotoxicity”.
